Earlier results as cited in patent US20210037830A1, “PHYTOTOXIC MICRONUTRIENT COMBINATIONS FOR SELECTIVE CONTROL OF INVASIVE PLANT SPECIES” (Edaphix, LLC, priority 2019, published 2021).

Test system: humans
Conditions: 2005 carcinogen assessment guidelines; cited from earlier work

Q: Which “U.S. EPA carcinogenicity classification” value does the source give for `OB(O)O` [boric acid] here?
A: not likely to be carcinogenic to humans
